{
  "source": "ChEMBL document CHEMBL5042543",
  "about": "“Bridged Piperidine Analogues of a High Affinity Naphthalene-Based P2Y14R Antagonist” (J Med Chem, 2022)",
  "key": {"P2Y purinoceptor 14": {"target": "T1, P2Y purinoceptor 14 (Homo sapiens, UniProt Q15391)", "T1 sequence (Q15391 whole entry)": "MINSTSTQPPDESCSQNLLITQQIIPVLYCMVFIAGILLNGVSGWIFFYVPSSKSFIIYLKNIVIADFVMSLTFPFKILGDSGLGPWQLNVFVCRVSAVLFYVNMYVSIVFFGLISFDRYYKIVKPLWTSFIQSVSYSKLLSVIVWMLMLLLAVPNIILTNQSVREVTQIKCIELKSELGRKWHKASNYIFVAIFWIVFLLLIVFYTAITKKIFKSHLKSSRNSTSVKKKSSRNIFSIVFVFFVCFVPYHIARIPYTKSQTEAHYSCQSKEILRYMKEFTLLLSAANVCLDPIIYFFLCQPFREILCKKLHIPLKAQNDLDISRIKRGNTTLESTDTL", "assay": "cell-based"}, "[1]": {"assay": "Aqueous solubility of the compound at pH 7.4", "details": "buffer"}},
  "data": [
    {"smiles": "O=C(O)c1cc(-c2cc(C34CCN(CC3)CC4)ccc2Br)c2ccc(-c3ccc(C(F)(F)F)cc3)cc2c1", "values": [
      {"measurement": "IC50", "setting": "P2Y purinoceptor 14", "result": 8900, "unit": "nM"}
    ]},
    {"smiles": "O=C(O)c1cc(-c2ccc(C3(O)[C@H]4CC[C@H]3CN(Cc3ccccc3)C4)cc2)c2ccc(-c3ccc(C(F)(F)F)cc3)cc2c1", "note": "(some centres undefined)", "values": [
      {"measurement": "IC50", "setting": "P2Y purinoceptor 14", "result": 466, "unit": "nM"}
    ]},
    {"smiles": "O=C(O)c1cc(-c2ccc([C@@]3(O)C[C@H]4CC[C@@H](C3)N4)cc2)c2ccc(-c3ccc(C(F)(F)F)cc3)cc2c1", "values": [
      {"measurement": "solubility", "setting": "[1]", "result": 0.75, "unit": "µg/mL"},
      {"measurement": "IC50", "setting": "P2Y purinoceptor 14", "result": 117, "unit": "nM"}
    ]}
  ]
}
